Reference: patent US9278960B2, “Quinoline carboxamide and quinoline carbonitrile derivatives as mGluR2-negative allosteric modulators, compositions, and their use” (Merck Sharp & Dohme Corp., priority 2011, dated 2016)

Protein sequences, listed by entry. Tags and fused reporters are not part of them. Residues count along the entry.
UniProt Q14416, 19-872: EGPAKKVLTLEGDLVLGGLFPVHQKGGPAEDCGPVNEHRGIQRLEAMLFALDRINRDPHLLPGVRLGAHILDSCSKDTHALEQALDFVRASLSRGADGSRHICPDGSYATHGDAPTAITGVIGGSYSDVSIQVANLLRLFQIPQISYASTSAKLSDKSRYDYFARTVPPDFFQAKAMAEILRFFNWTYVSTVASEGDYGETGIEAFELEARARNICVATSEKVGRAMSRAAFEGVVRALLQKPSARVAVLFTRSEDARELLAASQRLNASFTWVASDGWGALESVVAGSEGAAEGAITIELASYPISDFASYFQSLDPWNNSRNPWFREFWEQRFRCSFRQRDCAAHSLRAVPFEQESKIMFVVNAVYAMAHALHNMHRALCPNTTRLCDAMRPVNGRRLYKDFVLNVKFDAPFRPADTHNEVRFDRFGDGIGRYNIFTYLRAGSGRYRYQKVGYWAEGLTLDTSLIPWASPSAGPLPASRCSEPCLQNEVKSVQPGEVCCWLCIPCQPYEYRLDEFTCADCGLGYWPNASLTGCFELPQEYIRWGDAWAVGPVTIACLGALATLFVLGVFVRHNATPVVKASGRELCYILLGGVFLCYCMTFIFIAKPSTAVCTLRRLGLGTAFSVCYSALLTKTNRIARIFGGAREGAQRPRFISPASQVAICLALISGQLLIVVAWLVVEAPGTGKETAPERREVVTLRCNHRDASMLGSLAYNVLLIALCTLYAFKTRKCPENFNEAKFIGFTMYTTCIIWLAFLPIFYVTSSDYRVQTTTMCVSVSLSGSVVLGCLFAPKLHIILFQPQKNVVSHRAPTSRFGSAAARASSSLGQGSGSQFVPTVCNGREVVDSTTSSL

Target: human mGluR2 (Homo sapiens (Human), UniProt Q14416)
Test: FLIPR Ca2+ mobilization antagonist assay in CHO dhfr- cells expressing recombinant human mGluR2 and Gα16
Assay type: cell-based
Conditions: antagonist response after addition of 2,500 nM glutamate, Fluo-4 AM, FLIPR384

Row | IC50 | Structure (SMILES)
1 | 12 nM | COc1ccc(-c2cc(C(N)=O)nc3cc(C(C)Cc4ccc(C)nc4)ccc23)cc1 (stereo not drawn) [Example 8-42, 4-(4-methoxyphenyl)-7-[1-methyl-2-(6-methylpyridin-3-yl)ethyl]quinoline-2-carboxamide]
2 | 243 nM | Cn1cc(-c2cc(C(N)=O)nc3cc(CN4CCCC(F)C4)ccc23)cn1 (stereo not drawn) [Example 4-72, 7-[(3-fluoropiperidin-1-yl)methyl]-4-(1-methyl-1H-pyrazol-4-yl)quinoline-2-carboxamide]
3 | 13 nM | Cc1cc(-c2cc(C(N)=O)nc3cc(CN4C[C@@H](C)O[C@@H](C(F)(F)F)C4)ccc23)sn1 [Example 4-126, 4-(3-methylisothiazol-5-yl)-7-{[(2R,6R)-2-methyl-6-(trifluoromethyl)morpholin-4-yl]methyl}quinoline-2-carboxamide]
4 | 27 nM | COc1ccc(-c2cc(C(N)=O)nc3cc(CCc4cnc(C)nc4)ccc23)cc1C [Example 8-52, 4-(4-methoxy-3-methylphenyl)-7-[2-(2-methylpyrimidin-5-yl)ethyl]quinoline-2-carboxamide]
5 | 21 nM | CC1(C)CC(=O)N(Cc2ccc3c(-c4ccc(F)cc4)cc(C(N)=O)nc3c2)C(=O)C1 [Example 2-10, 7-[(4,4-dimethyl-2,6-dioxopiperidin-1-yl)methyl]-4-(4-fluorophenyl)quinoline-2-carboxamide]
6 | 15 nM | NC(=O)c1cc(-c2ccc(F)cc2)c2ccc(Cc3ccc(CO)nc3)c(F)c2n1 [Example 7-26, 8-fluoro-4-(4-fluorophenyl)-7-{[6-(hydroxymethyl)pyridin-3-yl]methyl}quinoline-2-carboxamide]
7 | 196 nM | C[C@@H]1COCCN1Cc1ccc2c(-c3cnn(C)c3)cc(C(N)=O)nc2c1 [Example 4-60, 7-{[(3R)-3-methylmorpholin-4-yl]methyl}-4-(1-methyl-1H-pyrazol-4-yl)quinoline-2-carboxamide]
8 | 54 nM | Cc1nccn1Cc1ccc2c(-c3ccc(F)cc3)cc(C(N)=O)nc2c1 [Example 3-31, 4-(4-fluorophenyl)-7-[(2-methyl-1H-imidazol-1-yl)methyl]quinoline-2-carboxamide]
9 | 5 nM | COc1cc(F)c(-c2cc(C(N)=O)nc3cc(CCc4cnc(C)nc4)ccc23)c(F)c1 [Example 8-51, 4-(2,6-difluoro-4-methoxyphenyl)-7-[2-(2-methylpyrimidin-5-yl)ethyl]quinoline-2-carboxamide]
10 | 7 nM | COc1ccc(-c2cc(C(N)=O)nc3cc(C(C)Cc4cnc(C)nc4)ccc23)c(F)c1 (single isomer, unassigned) [Example 8-10, 4-(2-Fluoro-4-methoxyphenyl)-7-[1-(2-methylpyrimidin-5-yl)propan-2(R or S)-yl]quinoline-2-carboxamide]
11 | 49 nM | NC(=O)c1cc(-c2ccc(F)cc2)c2ccc(CN3CCCC(C(F)(F)F)C3)cc2n1 (stereo not drawn) [Example 4-123, 4-(4-fluorophenyl)-7-{[3-(trifluoromethyl)piperidin-1-yl]methyl}quinoline-2-carboxamide]
12 | 24 nM | NC(=O)c1cc(-c2ccc(F)cc2)c2ccc(Cn3c(CC(F)(F)F)nc4ccccc43)cc2n1 [Example 3-38, 4-(4-fluorophenyl)-7-{[2-(2,2,2-trifluoroethyl)-1H-benzimidazol-1-yl]methyl}quinoline-2-carboxamide]
13 | 48 nM | NC(=O)c1cc(-c2ccc(F)cc2)c2ccc(CN3CCCC(C(F)(F)F)C3)cc2n1 (stereo not drawn) [Example 4-124, 4-(4-fluorophenyl)-7-{[3-(trifluoromethyl)piperidin-1-yl]methyl}quinoline-2-carboxamide]
14 | 245 nM | Cn1cc(-c2cc(C(N)=O)nc3cc(CN4CCC5(CC4)CC5)ccc23)cn1 [Example 4-130, 7-(6-azaspiro[2.5]oct-6-ylmethyl)-4-(1-methyl-1H-pyrazol-4-yl)quinoline-2-carboxamide]
15 | 57 nM | C[C@H]1COCCN1Cc1ccc2c(-c3ccc(F)cc3)cc(C(N)=O)nc2c1 [Example 4-38, 4-(4-fluorophenyl)-7-{[(3S)-3-methylmorpholin-4-yl]methyl}quinoline-2-carboxamide]
